Test results from patent US20040157280A1, “Antibody mediated ozone generation” (priority 2001, published 2004).

Test: Hydrogen peroxide production by UV-irradiated antibody/protein (Amplex Red assay)
Format: biochemical
Conditions: UV irradiation in PBS
Description: Antibody/Protein Irradiation. Unless otherwise stated, the assay solution (100 μl, 6.7 μM protein in PBS, pH 7.4) was added to a glass vial, sealed with a screw-cap, and irradiated with either UV (312 nm, […] Fischer-Biotech transilluminator) or visible light.
Quantitative Assay for Hydrogen Peroxide. An aliquot (20 μl) from the protein solution was removed and added into a well of a 96-well microtiter plate (Costar) containing reaction buffer (80 μl). Working solution (100 μl/400 μM Amplex Red reagent ½ units/ml horseradish peroxidase) was then added, and the plate was incubated in the dark for 30 min. The fluorescence of the well components was then measured using a CytoFluor Multiwell Plate Reader (Series 4000, PerSeptive Biosystems, Framingham, Mass.; Ex/Em: 530/580 nm). The hydrogen peroxide concentration was determined using a standard curve. All experiments were run in duplicate, and the rate is quoted as the mean of at least two measurements.
Denaturation. IgG 19G12 (100 μl, 6.7 μM) was heated to 100EC in an Eppendorf tube for 2 min. The resultant solution was transferred to a glass, screw-cap vial and irradiated with UV light for 30 min. The concentration of H2O2 was determined after 30 min.

## β2-microglobulin: member of the immunoglobulin superfamily
  ability to reduce ^1O2 / generate H2O2 (in words): does not generate H2O2
Listed as Human β2-microglobulin
  ability to reduce ^1O2 / generate H2O2 (in words): does not generate H2O2
Listed as β2-macroglobulin
  ability to reduce ^1O2 / generate H2O2 (in words): does not generate hydrogen peroxide
